In patent publication US9844656B2, “Localization of agents at a target site with a composition and an energy source” (The Regents of the University of California, priority 2010, dated 2017):

Test system: Met-1 tumors
Settings: ten day course, ~6 mg doxorubicin/kg iv; free doxorubicin versus saline, liposomes versus free doxorubicin

## COc1cccc2c1C(=O)c1c(O)c3c(c(O)c1C2=O)C[C@@](O)(C(=O)CO)C[C@@H]3O[C@H]1C[C@H](N)[C@H](O)[C@H](C)O1.Cl [free doxorubicin, Doxorubicin hydrochloride]
  tumor growth suppression: showed a therapeutic effect
